Results taken from patent publication US9572850B2, “Use of cajeput and Pimenta racemosa extract for treating parasitic infestation of fish” (Mars, Incorporated, priority 2009, dated 2017).

Tested on: juvenile guppies each infected with 10-40 individuals of G. turnbulli
Assay: Host mortality / toxicity to fish in Trial 3
Conditions: shoals of 3 juvenile guppies, daily treatment for 7 days, low number of replicates

With `C=CCSSCC=C` [Allyl disulphide, allyl disulphide] the “Host mortalities (%) Trial 3” value was 33%.
